The record followed here is publication PMC3578011 (2013).

By UniProt entry, the sequences of proteins in these tests, tags left out.
UniProt P21554, whole entry: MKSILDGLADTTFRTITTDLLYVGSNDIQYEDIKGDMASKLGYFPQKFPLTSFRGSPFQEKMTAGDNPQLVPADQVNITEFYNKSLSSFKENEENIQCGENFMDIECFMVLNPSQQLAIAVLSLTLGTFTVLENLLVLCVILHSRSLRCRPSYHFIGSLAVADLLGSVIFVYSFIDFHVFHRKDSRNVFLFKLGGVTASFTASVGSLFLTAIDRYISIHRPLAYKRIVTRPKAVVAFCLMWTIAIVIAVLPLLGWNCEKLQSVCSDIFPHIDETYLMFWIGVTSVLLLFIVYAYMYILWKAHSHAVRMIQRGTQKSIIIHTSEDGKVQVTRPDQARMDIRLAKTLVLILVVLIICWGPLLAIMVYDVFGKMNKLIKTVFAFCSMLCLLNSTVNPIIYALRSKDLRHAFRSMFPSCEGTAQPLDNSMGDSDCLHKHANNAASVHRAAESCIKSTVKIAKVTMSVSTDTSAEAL

The target of test [1] is T1, CB1 (Homo sapiens, UniProt P21554). Put plainly: Radioligand binding assay, cooperativity with [3H]CP55,940.
For test [2], the target named is T1, CB1. Put plainly: Radioligand binding assay, cooperativity with [3H]SR141716A.

Consider `CCCCCc1c(C(=O)NCCc2ccc(N3CCCCC3)cc2)[nH]c2ccc(Cl)cc12` [ICAM-b, 5-chloro-3-pentyl-N-(4-(piperidin-1-yl)phenethyl)-1H-indole-2-carboxamide], for which the values for the Kb on CB1 [1] and on CB1 [2] were 470 nM and 832 nM, respectively.
